According to US9138407B2, “Inhalatory pharmaceutical compositions in form of dry powders, solutions or suspensions obtained from the same and process for their preparation” (Eratech S.R.L., priority 2005, dated 2015):

Test: Dimensional distribution of nebulized droplets by laser light scattering (Sympatec Helos)
Assay type: physicochemical
Details: nebulizer M (mesh or piezoelectric); after first minute of continuous delivery
Experimental: has improved in relation to the droplet diameter of the nebulized product and/or to the dose delivered in a standard delivery time for a patient, correspondent to 5 minutes, we have dispersed in 2 ml of distilled water 40 mg of powder, produced according to example 4 later described, correspondent to a 240 μg dose of salbutamol, comparing it with an equivalent dose of salbutamol sulphate dissolved in 2 ml of distilled water.
The same formulation has been investigated measuring after the first minute of continuous delivery the dimensional distribution of the delivered droplets, by putting the device in front of a laser ray of a light scattering particle size analyzer, Sympatec Helos, provided of a R1 measuring lens for the range 0.1-35 μm.

X50 of delivered droplets: 10.17 μm
Substance: salbutamol sulphate
